Literature values as cited in patent publication US7605179B2, “Napthoquinone derivatives as inhibitors of tau aggregation for the treatment of alzheimer's and related neurodegenerative disorders” (Wista Laboratories Ltd., priority 2001, dated 2009).

Test system: cultured CNS neurones
Details: in the range 10 nM—1 μM; cited from earlier work

menaquinone [Compound K2]
survival promoting effects: prominent survival promoting effects
